Structures are written as SMILES.

The chains behind the UniProt entries cited, without tags or fusion partners. Where a name states a change or a piece, a line headed by the entry shows the natural chain unless it says otherwise.
UniProt Q9D6N1: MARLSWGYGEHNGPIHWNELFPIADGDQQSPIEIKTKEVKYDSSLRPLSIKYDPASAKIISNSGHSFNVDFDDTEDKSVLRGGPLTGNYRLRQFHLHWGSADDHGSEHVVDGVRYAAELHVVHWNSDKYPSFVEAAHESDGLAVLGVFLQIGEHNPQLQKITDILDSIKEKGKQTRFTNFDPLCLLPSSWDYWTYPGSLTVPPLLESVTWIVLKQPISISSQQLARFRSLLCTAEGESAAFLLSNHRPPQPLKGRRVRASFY
UniProt P00915: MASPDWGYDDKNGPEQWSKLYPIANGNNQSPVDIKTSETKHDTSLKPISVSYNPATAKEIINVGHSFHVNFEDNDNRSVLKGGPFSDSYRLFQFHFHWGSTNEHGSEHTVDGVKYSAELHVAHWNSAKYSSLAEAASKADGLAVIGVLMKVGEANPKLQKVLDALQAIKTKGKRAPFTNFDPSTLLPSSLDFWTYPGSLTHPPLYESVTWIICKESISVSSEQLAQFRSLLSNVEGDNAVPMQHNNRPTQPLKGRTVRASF

For assay [1], the target named is Carbonic anhydrase 13 (Mus musculus) (UniProt Q9D6N1). As to the kind of experiment: Activation of mouse recombinant CA13 by CO2 hydrase method.
For assay [2], the target named is Carbonic anhydrase 2 (Homo sapiens) (UniProt P00918). The assay is described as follows: Activation of human recombinant CA2 by CO2 hydrase assay.
In assay [3] the target is Carbonic anhydrase 1 (Homo sapiens) (UniProt P00915). The assay is described as follows: Activation of human recombinant CA1 by CO2 hydrase assay.

As to `N[C@@H](Cc1ccccc1)C(=O)O`, the KA came out at 1.02 µM in assay [1], 0.013 µM in assay [2] and 0.07 µM in assay [3].

On to `N[C@H](Cc1ccccc1)C(=O)O`, for which the KA in assay [1] came out at 0.051 µM; in assay [2], 0.035 µM; in assay [3], 86 µM.

Values taken from ChEMBL document CHEMBL1138969, “Carbonic anhydrase activators: activation of isozyme XIII with amino acids and amines” (Bioorg Med Chem Lett, 2006).
